The target of the assay is Peroxisome proliferator-activated receptor gamma (Homo sapiens, UniProt P37231). Kind of assay: Inhibition of PPARgamma assessed as transcriptional activity.

Sequences of proteins named here, by UniProt entry; tags and fusion partners are left off. A change or cut given only in a name is not applied to a line headed by its entry.
UniProt P37231: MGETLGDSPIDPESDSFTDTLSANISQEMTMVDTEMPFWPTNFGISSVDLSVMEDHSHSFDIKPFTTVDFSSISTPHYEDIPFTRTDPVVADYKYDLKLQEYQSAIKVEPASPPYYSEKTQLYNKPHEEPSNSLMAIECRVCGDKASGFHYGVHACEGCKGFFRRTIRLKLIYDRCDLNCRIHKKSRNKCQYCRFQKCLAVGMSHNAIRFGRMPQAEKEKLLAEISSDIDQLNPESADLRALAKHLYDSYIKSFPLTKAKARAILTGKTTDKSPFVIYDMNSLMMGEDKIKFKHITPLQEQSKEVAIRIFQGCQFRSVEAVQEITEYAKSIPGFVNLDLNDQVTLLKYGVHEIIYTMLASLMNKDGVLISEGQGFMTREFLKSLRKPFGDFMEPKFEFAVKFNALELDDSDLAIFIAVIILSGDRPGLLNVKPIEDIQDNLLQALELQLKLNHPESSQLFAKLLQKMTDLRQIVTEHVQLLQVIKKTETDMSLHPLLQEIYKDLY

The structures appear in SMILES notation.

For orientation: IC50 means the concentration at which inhibition is half-maximal. With `COC1Oc2cc(O)c3c(c2C(=O)N1C(=O)NCc1cccc2ccccc12)OC1=CC(O)=C(C(C)=O)C(=O)[C@]13C` (stereo partly specified), the IC50 was determined as 620 nM.
